Experimental data taken from patent publication US20210395313A1, “PEPTIDE PAC1 ANTAGONISTS” (AMGEN INC., priority 2017, published 2021).

Tests used:
human PAC1 receptor = target: T1, human PAC1 receptor (Homo sapiens, UniProt P41586); assay: LANCE Ultra cAMP accumulation antagonist assay in SHSY-5Y cells; assay type: cell-based;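 further: inhibition of cAMP accumulation evoked by PAC1 agonist at its EC80 in SHSY-5Y cells endogenously expressing receptor, 30 min preincubation then 15 min agonist, TR-FRET readout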
T1 construct: SHSY-5Y (human neuroblastoma cell line) and RG-2 (rat glioma cell line) cells endogenously express human and rat PAC1 receptors, respectively; endogenous in cells; host or cells: SHSY-5Y human neuroblastoma cells
T1 sequence (P41586 21-468): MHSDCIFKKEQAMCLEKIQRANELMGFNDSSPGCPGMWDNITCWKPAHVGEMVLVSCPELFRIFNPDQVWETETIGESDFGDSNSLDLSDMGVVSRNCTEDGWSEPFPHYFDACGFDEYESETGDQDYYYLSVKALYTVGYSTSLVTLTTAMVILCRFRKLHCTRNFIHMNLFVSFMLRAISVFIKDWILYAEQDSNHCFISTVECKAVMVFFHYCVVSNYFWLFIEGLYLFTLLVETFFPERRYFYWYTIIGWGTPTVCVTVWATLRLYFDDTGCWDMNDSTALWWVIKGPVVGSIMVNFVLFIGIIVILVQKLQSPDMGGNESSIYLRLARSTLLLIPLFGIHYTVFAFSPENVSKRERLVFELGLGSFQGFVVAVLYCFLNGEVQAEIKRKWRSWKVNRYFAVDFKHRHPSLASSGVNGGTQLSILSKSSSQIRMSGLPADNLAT

rat PAC1 receptor = target: T2, rat PAC1 receptor (Rattus norvegicus, UniProt P32215); assay: LANCE Ultra cAMP accumulation antagonist assay in RG-2 cells; assay type: cell-based;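 further: RG-2 rat glioma cells endogenously expressing PAC1, test peptide preincubated 30 min, then PAC1 agonist added at its EC80 for 15 min, cAMP accumulation read by LANCE Ultra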
T2 construct: SHSY-5Y (human neuroblastoma cell line) and RG-2 (rat glioma cell line) cells endogenously express human and rat PAC1 receptors, respectively; endogenous in cells; host or cells: RG-2 rat glioma cells
T2 sequence (P32215 20-523): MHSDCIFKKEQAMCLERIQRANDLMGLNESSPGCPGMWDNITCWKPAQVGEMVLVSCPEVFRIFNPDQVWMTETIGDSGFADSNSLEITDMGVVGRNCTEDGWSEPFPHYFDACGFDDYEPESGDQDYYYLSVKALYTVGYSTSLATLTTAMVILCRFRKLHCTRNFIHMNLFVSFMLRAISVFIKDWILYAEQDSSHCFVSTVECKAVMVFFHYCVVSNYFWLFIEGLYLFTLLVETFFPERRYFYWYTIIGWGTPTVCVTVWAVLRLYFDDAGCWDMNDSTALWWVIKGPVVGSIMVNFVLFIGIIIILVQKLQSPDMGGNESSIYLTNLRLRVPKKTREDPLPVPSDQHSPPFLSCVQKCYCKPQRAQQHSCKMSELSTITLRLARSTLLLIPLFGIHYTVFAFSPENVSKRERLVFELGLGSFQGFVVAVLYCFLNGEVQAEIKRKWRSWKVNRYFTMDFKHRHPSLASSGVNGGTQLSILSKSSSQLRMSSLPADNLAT

`CCCC[C@H](NC(=O)[C@@H]1CSSC[C@H](NC(=O)[C@H](CC(=O)O)NC(=O)[C@H](CC(=O)O)NC(=O)[C@@H](NC(=O)[C@H](C)NC(=O)[C@H](CCCCN)NC(=O)[C@H](CCCNC(=N)N)NC(=O)[C@H](Cc2ccccc2)NC(=O)[C@H](CCC(N)=O)NC(=O)[C@@H]2CSSC[C@H](N)C(=O)N[C@@H](CC(=O)O)C(=O)N[C@@H](C)C(=O)N[C@@H]([C@@H](C)O)C(=O)N2)[C@@H](C)CC)C(=O)N[C@@H](CC(=O)O)C(=O)N[C@@H](CCCCN)C(=O)N[C@@H](CCC(N)=O)C(=O)N[C@@H](C)C(=O)N[C@@H](Cc2c[nH]cn2)C(=O)N[C@@H](Cc2c[nH]cn2)C(=O)N[C@@H](CO)C(=O)N[C@@H](CC(N)=O)C(=O)N[C@@H](CO)C(=O)N[C@@H](Cc2ccccc2)C(=O)N[C@@H](CCCCN)C(=O)N[C@@H](CCC(=O)O)C(=O)N1)C(=O)N[C@@H](CCCCN)C(=O)N[C@@H](CCC(N)=O)C(=O)N[C@@H](CCCCN)C(=O)N[C@@H](CCCCN)C(=O)N[C@@H](CCCCN)C(=O)N[C@@H](CCC(=O)O)C(=O)N[C@@H](Cc1ccccc1)C(=O)N[C@@H](CCCCN)C(N)=O` [compound 220] showed an IC50 (human PAC1 receptor) of 1 to 100 nM and an IC50 (rat PAC1 receptor) of 1 to 100 nM.

`CCCC[C@H](NC(=O)[C@@H]1CSSC[C@H](NC(=O)[C@H](CC(=O)O)NC(=O)[C@H](CC(=O)O)NC(=O)[C@@H](NC(=O)[C@H](C)NC(=O)[C@H](CCCCN)NC(=O)[C@H](CCCNC(=N)N)NC(=O)[C@H](Cc2ccccc2)NC(=O)[C@H](CCC(N)=O)NC(=O)[C@@H]2CSSC[C@H](N)C(=O)N[C@@H](CC(=O)O)C(=O)N[C@@H](C)C(=O)N[C@@H]([C@@H](C)O)C(=O)N2)[C@@H](C)CC)C(=O)N[C@@H](CC(=O)O)C(=O)N[C@@H](CCCCN)C(=O)N[C@@H](CCC(N)=O)C(=O)N[C@@H](C)C(=O)N[C@@H](Cc2c[nH]cn2)C(=O)N[C@@H](Cc2c[nH]cn2)C(=O)N[C@@H](CO)C(=O)N[C@@H](CO)C(=O)N[C@@H](C(C)C)C(=O)N[C@@H](Cc2ccccc2)C(=O)N[C@@H](CCCCN)C(=O)N[C@@H](CCC(=O)O)C(=O)N1)C(=O)N[C@@H](CCCCN)C(=O)N[C@@H](CCC(N)=O)C(=O)N[C@@H](CCCCN)C(=O)N[C@@H](CCCCN)C(=O)N[C@@H](CCCCN)C(=O)N[C@@H](CCC(=O)O)C(=O)N[C@@H](Cc1ccccc1)C(=O)N[C@@H](CCCCN)C(N)=O` [compound 221] was tested, and the IC50 (human PAC1 receptor) was 1 to 100 nM and the IC50 (rat PAC1 receptor) was 1 to 100 nM.

With `CC[C@H](C)[C@H](NC(=O)[C@H](C)NC(=O)[C@H](CCCCN)NC(=O)[C@H](CCCNC(=N)N)NC(=O)[C@H](Cc1ccccc1)NC(=O)[C@H](CCC(N)=O)NC(=O)[C@@H]1CSSC[C@H](N)C(=O)N[C@@H](CC(=O)O)C(=O)N[C@@H](C)C(=O)N[C@@H]([C@@H](C)O)C(=O)N1)C(=O)N[C@@H](CC(=O)O)C(=O)N[C@@H](CC(=O)O)C(=O)N[C@H]1CSSC[C@@H](C(=O)N[C@@H](CCSC)C(=O)N[C@@H](CCCCN)C(=O)N[C@@H](CCC(N)=O)C(=O)N[C@@H](CCCCN)C(=O)N[C@@H](CCCCN)C(=O)N[C@@H](CCCCN)C(=O)N[C@@H](CCC(=O)O)C(=O)N[C@@H](Cc2ccccc2)C(=O)N[C@@H](CCCCN)C(=O)N[C@@H](C)C(=O)NCC(N)=O)NC(=O)C(C)(C)NC(=O)[C@H](CCCCN)NC(=O)[C@H](Cc2ccccc2)NC(=O)[C@H](C(C)C)NC(=O)[C@H](C)NC(=O)[C@H](C)NC(=O)[C@@H]2CCCN2C(=O)CNC(=O)[C@H](CC(N)=O)NC(=O)[C@H](CO)NC(=O)[C@H](Cc2c[nH]cn2)NC(=O)[C@H](Cc2c[nH]cn2)NC(=O)[C@H](C)NC(=O)[C@H](CCC(N)=O)NC(=O)[C@H](CCCCN)NC(=O)[C@H](CCC(N)=O)NC1=O` [compound 227] the IC50 (human PAC1 receptor) was 0.01 to 1 nM and the IC50 (rat PAC1 receptor) was 0.01 to 1 nM.

`CC[C@H](C)[C@H](NC(=O)[C@H](C)NC(=O)[C@H](CCCCN)NC(=O)[C@H](CCCNC(=N)N)NC(=O)[C@H](Cc1ccccc1)NC(=O)[C@H](CCC(N)=O)NC(=O)[C@@H]1CSSC[C@H](N)C(=O)N[C@@H](CC(=O)O)C(=O)N[C@@H](C)C(=O)N[C@@H]([C@@H](C)O)C(=O)N1)C(=O)N[C@@H](CC(=O)O)C(=O)N[C@@H](CC(=O)O)C(=O)N[C@H]1CSSC[C@@H](C(=O)N[C@@H](CCSC)C(=O)N[C@@H](CCCCN)C(=O)N[C@@H](CCC(N)=O)C(=O)N[C@@H](CCCCN)C(=O)N[C@@H](CCCCN)C(=O)N[C@@H](CCCCN)C(=O)N[C@@H](CCC(=O)O)C(=O)N[C@@H](Cc2ccccc2)C(=O)N[C@@H](CCCCN)C(=O)N[C@@H](C)C(=O)N[C@@H](CC(N)=O)C(N)=O)NC(=O)C(C)(C)NC(=O)[C@H](CCCCN)NC(=O)[C@H](Cc2ccccc2)NC(=O)[C@H](C(C)C)NC(=O)[C@H](CO)NC(=O)CNC(=O)[C@@H]2CCCN2C(=O)[C@H](C(C)C)NC(=O)[C@H](CC(N)=O)NC(=O)[C@H](CO)NC(=O)[C@H](Cc2c[nH]cn2)NC(=O)[C@H](Cc2c[nH]cn2)NC(=O)[C@H](C)NC(=O)[C@H](CCC(N)=O)NC(=O)[C@H](CCCCN)NC(=O)[C@H](CCC(N)=O)NC1=O` [compound 228] was tested, and the IC50 (human PAC1 receptor) was 0.01 to 1 nM and the IC50 (rat PAC1 receptor) was 0.01 to 1 nM.

`CC[C@H](C)[C@H](NC(=O)[C@H](C)NC(=O)[C@H](CCCCN)NC(=O)[C@H](CCCNC(=N)N)NC(=O)[C@H](Cc1ccccc1)NC(=O)[C@H](CCC(N)=O)NC(=O)[C@@H]1CSSC[C@H](N)C(=O)N[C@@H](CC(=O)O)C(=O)N[C@@H](C)C(=O)N[C@@H]([C@@H](C)O)C(=O)N1)C(=O)N[C@@H](CC(=O)O)C(=O)N[C@@H](CC(=O)O)C(=O)N[C@H]1CSSC[C@@H](C(=O)N[C@@H](CCSC)C(=O)N[C@@H](CCCCN)C(=O)N[C@@H](CCC(N)=O)C(=O)N[C@@H](CCCCN)C(=O)N[C@@H](CCCCN)C(=O)N[C@@H](CCCCN)C(=O)N[C@@H](CCC(=O)O)C(=O)N[C@@H](Cc2ccccc2)C(=O)N[C@@H](CCCCN)C(=O)N[C@@H](C)C(=O)NCC(N)=O)NC(=O)C(C)(C)NC(=O)[C@H](CCCCN)NC(=O)[C@H](Cc2ccccc2)NC(=O)[C@H](C(C)C)NC(=O)[C@H](CO)NC(=O)CNC(=O)[C@@H]2CCCN2C(=O)[C@H](C(C)C)NC(=O)[C@H](CC(N)=O)NC(=O)[C@H](CO)NC(=O)[C@H](Cc2c[nH]cn2)NC(=O)[C@H](Cc2c[nH]cn2)NC(=O)[C@H](C)NC(=O)[C@H](CCC(N)=O)NC(=O)[C@H](CCCNC(=N)N)NC(=O)[C@H](CC(=O)O)NC1=O` [compound 229] gave an IC50 (human PAC1 receptor) of 0.01 to 1 nM and an IC50 (rat PAC1 receptor) of 0.01 to 1 nM.

`CC[C@H](C)[C@H](NC(=O)[C@H](C)NC(=O)[C@H](CCCCN)NC(=O)[C@H](CCCNC(=N)N)NC(=O)[C@H](Cc1ccccc1)NC(=O)[C@H](CCC(N)=O)NC(=O)[C@@H]1CSSC[C@H](N)C(=O)N[C@@H](CC(=O)O)C(=O)N[C@@H](C)C(=O)N[C@@H]([C@@H](C)O)C(=O)N1)C(=O)N[C@@H](CC(=O)O)C(=O)N[C@@H](CC(=O)O)C(=O)N[C@H]1CSSC[C@@H](C(=O)N[C@@H](CCSC)C(=O)N[C@@H](CCCCN)C(=O)N[C@@H](CCC(N)=O)C(=O)N[C@@H](CCCCN)C(=O)N[C@@H](CCCCN)C(=O)N[C@@H](CCCCN)C(=O)N[C@@H](CCC(=O)O)C(=O)N[C@@H](Cc2ccccc2)C(=O)N[C@@H](CCCCN)C(=O)N[C@@H](C)C(=O)NCC(N)=O)NC(=O)[C@@H](C)NC(=O)[C@H](CCCCN)NC(=O)[C@H](Cc2ccccc2)NC(=O)[C@H](C(C)C)NC(=O)[C@H](CO)NC(=O)CNC(=O)[C@@H]2CCCN2C(=O)[C@H](C(C)C)NC(=O)[C@H](CC(N)=O)NC(=O)[C@H](CO)NC(=O)[C@H](Cc2c[nH]cn2)NC(=O)[C@H](Cc2c[nH]cn2)NC(=O)[C@H](C)NC(=O)[C@H](CCC(N)=O)NC(=O)[C@H](CCCCN)NC(=O)[C@H](CCC(N)=O)NC1=O` [compound 230] showed an IC50 (human PAC1 receptor) of 0.01 to 1 nM and an IC50 (rat PAC1 receptor) of 0.01 to 1 nM.

In the case of `CC[C@H](C)[C@H](NC(=O)[C@H](C)NC(=O)[C@H](CCCCN)NC(=O)[C@H](CCCNC(=N)N)NC(=O)[C@H](Cc1ccccc1)NC(=O)[C@H](CCC(N)=O)NC(=O)[C@@H]1CSSC[C@H](N)C(=O)N[C@@H](CC(=O)O)C(=O)N[C@@H](C)C(=O)N[C@@H]([C@@H](C)O)C(=O)N1)C(=O)N[C@@H](CC(=O)O)C(=O)N[C@@H](CC(=O)O)C(=O)N[C@H]1CSSC[C@@H](C(=O)N[C@@H](CCSC)C(=O)N[C@@H](CCCCN)C(=O)N[C@@H](CCC(N)=O)C(=O)N[C@@H](CCCCN)C(=O)N[C@@H](CCCCN)C(=O)N[C@@H](CCCCN)C(=O)N[C@@H](CCC(=O)O)C(=O)N[C@@H](Cc2c[nH]c3ccccc23)C(=O)N[C@@H](CCCCN)C(=O)N[C@@H](C)C(=O)NCC(N)=O)NC(=O)C(C)(C)NC(=O)[C@H](CCCCN)NC(=O)[C@H](Cc2ccccc2)NC(=O)[C@H](C(C)C)NC(=O)[C@H](CO)NC(=O)CNC(=O)[C@@H]2CCCN2C(=O)[C@H](C(C)C)NC(=O)[C@H](CC(N)=O)NC(=O)[C@H](CO)NC(=O)[C@H](Cc2c[nH]cn2)NC(=O)[C@H](Cc2c[nH]cn2)NC(=O)[C@H](C)NC(=O)[C@H](CCC(N)=O)NC(=O)[C@H](CCCCN)NC(=O)[C@H](CCC(N)=O)NC1=O` [compound 231], the IC50 (human PAC1 receptor) is reported as 0.01 to 1 nM and the IC50 (rat PAC1 receptor) is reported as 0.01 to 1 nM.
